One assay concerns the target human full length SYK (Homo sapiens (Human), UniProt P43405). As to the kind of experiment: In vitro SYK kinase assay. The note with it: 20 uM ATP, 33P peptide phosphorylation. Format: biochemical. How it is done: Spleen tyrosine kinase (SYK) is a tyrosine kinase that plays an important role in B cell signal transduction. SYK activity is measured by phosphorylation of a peptide substrate (Biotin-EPEGDYEEVLE) with [gamma-^33P] ATP. The enzyme reaction was conducted at 20 uM ATP with 0.05 uCi [gamma-^33P]ATP (2 uCi for 40 ul assay) and 10 uM peptide substrate at final volume of 40 ul in buffer containing 50 mM Hepes, pH 7.2, 1 mM dithiothreitol, 10 mM MgCl2, 100 uM Na3VO4, 0.1% BSA and 10% DMSO. The enzyme assay was carried out with human full length SYK in the presence or absence of ten compound concentrations. SYK and compound were pre-incubated for 10 minutes. Then, the enzymatic reaction was initiated by addition of ATP and peptide substrate. The reaction mixture was incubated at room temperature for 30 minutes. At the end of incubation, the reaction was terminated by transferring 25 ul of the reaction mixture to 100 ul of 10% streptavidin slurry containing 100 mM EDTA. […] Then the incorporation of ^33P into peptide substrate was quantified on a microplate scintillation counter. Compound inhibition potency on SYK was measured by IC50 value generated from ten concentration inhibition curve fitted into the 3-parameter model: % inhibition=Maximum/(1+(IC50/[Inhibitor])^slope). Data were analyzed on Microsoft Excel for parameter estimation.

Chains of the proteins cited; added tags and fusions are not shown.
UniProt Q9NWZ3, whole entry, species assumed: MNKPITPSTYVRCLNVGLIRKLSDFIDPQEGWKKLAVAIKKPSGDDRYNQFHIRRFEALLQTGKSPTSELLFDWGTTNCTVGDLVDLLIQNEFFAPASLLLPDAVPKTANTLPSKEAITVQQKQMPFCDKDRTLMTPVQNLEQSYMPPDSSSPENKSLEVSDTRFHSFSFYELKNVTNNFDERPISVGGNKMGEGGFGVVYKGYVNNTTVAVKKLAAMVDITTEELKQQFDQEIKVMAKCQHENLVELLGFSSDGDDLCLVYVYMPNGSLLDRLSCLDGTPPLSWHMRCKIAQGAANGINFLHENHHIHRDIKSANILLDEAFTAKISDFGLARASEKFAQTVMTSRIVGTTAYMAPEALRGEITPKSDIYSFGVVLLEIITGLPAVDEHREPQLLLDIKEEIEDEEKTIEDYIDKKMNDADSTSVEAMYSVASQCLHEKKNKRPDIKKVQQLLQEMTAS

The target in the next assay is IRAK-4 (Homo sapiens (Human), UniProt Q9NWZ3). As to the kind of experiment: In vitro IRAK-4 kinase assay. Format: biochemical. The settings on record: purified recombinant IRAK-4, 50 uM ATP, 33P peptide phosphorylation. How it is done: Purified recombinant IRAK-4 protein was incubated with 250 uM synthetic peptide ([…]) in 30 ul of kinase buffer including (20 mM MOPS pH7.2, 25 mM beta glycerol phosphate, 5 mM EGTA, 1 mM sodium orthovanadate, 1 mM DTT, 50 uM ATP, 20 mM MgCl2, 10 uCi γ-^33P, 0.1% BSA) for the indicated time. For purified recombinant IRAK-1 protein kinase assay, 50 uM ATP was used. A 25 ul aliquot of the reaction mixture was transferred on to p81 phosphocellulose squares (Upstate Biotechnology, Lake Placid, N.Y.). The assay squares were washed three times with 0.75% phosphoric acid and once with acetone. Enzyme activity was measured by determining the bound radioactivity by liquid scintillation counting.

“2-(cis-2-amino-cyclohexylamino)-thieno[3,2-d]pyrimidine-7-carboxylic acid (2,4-dimethoxy-phenyl)-amide [Example 26]”: the IC50 (in general, the concentration that gives 50% inhibition) against human full length SYK is 725 nM; on IRAK-4, 31 nM.

(Values after patent US9255110B2 (Hoffmann-La Roche Inc., priority 2010, dated 2016).)
